Test results as given in publication PMC9588801 (Anesthesiology, 2022).

By UniProt entry, the sequences of proteins in these tests, tags left out. Residues count along the entry.
UniProt P14867, 28-456: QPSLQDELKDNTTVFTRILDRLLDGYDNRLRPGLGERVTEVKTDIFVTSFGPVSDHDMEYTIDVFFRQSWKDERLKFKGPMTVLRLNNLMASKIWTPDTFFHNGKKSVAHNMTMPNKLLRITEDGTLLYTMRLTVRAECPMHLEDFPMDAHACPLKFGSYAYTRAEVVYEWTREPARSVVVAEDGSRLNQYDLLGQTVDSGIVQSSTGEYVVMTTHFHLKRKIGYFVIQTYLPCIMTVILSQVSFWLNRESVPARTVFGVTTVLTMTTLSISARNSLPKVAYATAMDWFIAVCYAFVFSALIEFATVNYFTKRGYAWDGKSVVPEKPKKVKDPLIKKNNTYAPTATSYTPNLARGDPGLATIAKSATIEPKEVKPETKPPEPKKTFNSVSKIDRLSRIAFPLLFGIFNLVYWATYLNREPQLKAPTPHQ
UniProt P18507, 40-475: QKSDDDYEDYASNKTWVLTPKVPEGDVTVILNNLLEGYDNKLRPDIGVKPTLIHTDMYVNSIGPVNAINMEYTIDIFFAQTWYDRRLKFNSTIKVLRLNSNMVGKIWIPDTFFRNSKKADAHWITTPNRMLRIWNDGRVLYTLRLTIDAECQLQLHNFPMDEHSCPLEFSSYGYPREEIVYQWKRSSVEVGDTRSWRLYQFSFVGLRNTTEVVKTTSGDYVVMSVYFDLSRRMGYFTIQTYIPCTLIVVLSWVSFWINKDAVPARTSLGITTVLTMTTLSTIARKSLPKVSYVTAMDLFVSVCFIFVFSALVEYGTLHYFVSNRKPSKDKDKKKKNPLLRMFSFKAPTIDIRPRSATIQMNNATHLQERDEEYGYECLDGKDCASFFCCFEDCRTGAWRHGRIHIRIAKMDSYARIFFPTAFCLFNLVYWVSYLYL
UniProt P28472, 26-473: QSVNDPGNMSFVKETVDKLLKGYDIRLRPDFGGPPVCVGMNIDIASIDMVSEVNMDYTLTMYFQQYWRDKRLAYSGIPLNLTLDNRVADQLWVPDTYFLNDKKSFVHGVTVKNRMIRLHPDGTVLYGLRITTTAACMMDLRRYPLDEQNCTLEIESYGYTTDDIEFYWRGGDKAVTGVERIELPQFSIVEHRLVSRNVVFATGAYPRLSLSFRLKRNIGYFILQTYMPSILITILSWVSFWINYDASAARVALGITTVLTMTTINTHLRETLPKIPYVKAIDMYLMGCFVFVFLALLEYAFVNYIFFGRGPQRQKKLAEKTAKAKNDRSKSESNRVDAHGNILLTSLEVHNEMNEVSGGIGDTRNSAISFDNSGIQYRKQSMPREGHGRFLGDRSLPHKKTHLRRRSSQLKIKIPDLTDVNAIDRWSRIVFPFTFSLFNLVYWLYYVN

Target: human α1β3γ2L GABAA receptor (Homo sapiens, UniProt P14867+P18507+P28472)

CC(C)c1cccc(C(C)C)c1O [propofol, 2,6 di-isopropyl phenol]
EC50: 60 µM
